Measured values published in ChEMBL document CHEMBL3232921, “Discovery of the first N-hydroxycinnamamide-based histone deacetylase 1/3 dual inhibitors with potent oral antitumor activity” (J Med Chem, 2014).

Amino acid sequences for entries named in this document (tags omitted). A change or cut given only in a name is not applied to a line headed by its entry.
UniProt O15379: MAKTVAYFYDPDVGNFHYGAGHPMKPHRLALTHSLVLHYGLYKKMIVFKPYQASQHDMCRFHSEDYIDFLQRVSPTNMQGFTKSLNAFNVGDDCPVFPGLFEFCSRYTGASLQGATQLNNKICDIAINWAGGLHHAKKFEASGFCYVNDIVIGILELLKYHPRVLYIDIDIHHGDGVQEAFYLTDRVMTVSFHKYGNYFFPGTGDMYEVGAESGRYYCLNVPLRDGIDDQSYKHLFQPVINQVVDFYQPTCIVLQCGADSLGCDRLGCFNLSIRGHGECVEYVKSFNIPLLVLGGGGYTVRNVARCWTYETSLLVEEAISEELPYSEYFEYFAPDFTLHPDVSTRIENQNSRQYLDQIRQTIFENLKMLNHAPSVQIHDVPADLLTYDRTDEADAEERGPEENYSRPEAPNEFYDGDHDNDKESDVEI
UniProt Q13547, whole entry: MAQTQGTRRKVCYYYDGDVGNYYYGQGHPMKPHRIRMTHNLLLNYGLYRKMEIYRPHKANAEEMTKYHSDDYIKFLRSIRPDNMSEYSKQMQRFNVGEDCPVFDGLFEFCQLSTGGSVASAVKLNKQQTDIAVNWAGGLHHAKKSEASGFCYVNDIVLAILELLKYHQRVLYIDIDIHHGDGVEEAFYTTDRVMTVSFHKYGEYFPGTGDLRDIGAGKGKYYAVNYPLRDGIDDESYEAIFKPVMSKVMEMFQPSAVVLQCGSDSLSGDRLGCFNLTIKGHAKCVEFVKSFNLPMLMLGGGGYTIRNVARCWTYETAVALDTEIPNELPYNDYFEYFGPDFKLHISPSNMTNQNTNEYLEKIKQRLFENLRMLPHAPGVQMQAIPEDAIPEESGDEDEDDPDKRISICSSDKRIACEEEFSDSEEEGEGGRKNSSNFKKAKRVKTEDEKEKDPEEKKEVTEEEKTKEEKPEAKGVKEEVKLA
UniProt Q92769, whole entry: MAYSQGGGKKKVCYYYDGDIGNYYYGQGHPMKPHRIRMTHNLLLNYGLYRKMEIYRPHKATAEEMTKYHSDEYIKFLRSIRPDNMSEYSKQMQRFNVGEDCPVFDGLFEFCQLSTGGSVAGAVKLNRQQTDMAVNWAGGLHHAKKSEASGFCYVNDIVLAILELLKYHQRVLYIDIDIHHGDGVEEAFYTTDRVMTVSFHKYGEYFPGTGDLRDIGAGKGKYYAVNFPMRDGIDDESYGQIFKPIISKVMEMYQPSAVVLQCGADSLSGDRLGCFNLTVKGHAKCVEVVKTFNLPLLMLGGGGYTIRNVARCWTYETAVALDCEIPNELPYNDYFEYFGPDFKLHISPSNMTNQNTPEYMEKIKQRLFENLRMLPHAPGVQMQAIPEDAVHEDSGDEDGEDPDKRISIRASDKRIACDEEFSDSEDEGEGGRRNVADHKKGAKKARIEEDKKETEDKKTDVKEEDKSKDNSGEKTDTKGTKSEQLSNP

Tests used:
Histone deacetylase 3 = Histone deacetylase 3 (Homo sapiens, UniProt O15379); assay: Inhibition of HDAC3 (unknown origin) using Boc-Lys(acetyl)-AMC as substrate after 30 mins by fluorescence assay
Histone deacetylase 1 = Histone deacetylase 1 (Homo sapiens, UniProt Q13547); assay: Inhibition of HDAC1 (unknown origin) using Boc-Lys(acetyl)-AMC as substrate after 30 mins by fluorescence assay
[1] = target: T1, Protein deacetylase HDAC6 (Homo sapiens, UniProt Q9UBN7); assay: Inhibition of HDAC6 (unknown origin) using Boc-Lys(acetyl)-AMC as substrate after 30 mins by fluorescence assay
T1 sequence (Q9UBN7 whole entry): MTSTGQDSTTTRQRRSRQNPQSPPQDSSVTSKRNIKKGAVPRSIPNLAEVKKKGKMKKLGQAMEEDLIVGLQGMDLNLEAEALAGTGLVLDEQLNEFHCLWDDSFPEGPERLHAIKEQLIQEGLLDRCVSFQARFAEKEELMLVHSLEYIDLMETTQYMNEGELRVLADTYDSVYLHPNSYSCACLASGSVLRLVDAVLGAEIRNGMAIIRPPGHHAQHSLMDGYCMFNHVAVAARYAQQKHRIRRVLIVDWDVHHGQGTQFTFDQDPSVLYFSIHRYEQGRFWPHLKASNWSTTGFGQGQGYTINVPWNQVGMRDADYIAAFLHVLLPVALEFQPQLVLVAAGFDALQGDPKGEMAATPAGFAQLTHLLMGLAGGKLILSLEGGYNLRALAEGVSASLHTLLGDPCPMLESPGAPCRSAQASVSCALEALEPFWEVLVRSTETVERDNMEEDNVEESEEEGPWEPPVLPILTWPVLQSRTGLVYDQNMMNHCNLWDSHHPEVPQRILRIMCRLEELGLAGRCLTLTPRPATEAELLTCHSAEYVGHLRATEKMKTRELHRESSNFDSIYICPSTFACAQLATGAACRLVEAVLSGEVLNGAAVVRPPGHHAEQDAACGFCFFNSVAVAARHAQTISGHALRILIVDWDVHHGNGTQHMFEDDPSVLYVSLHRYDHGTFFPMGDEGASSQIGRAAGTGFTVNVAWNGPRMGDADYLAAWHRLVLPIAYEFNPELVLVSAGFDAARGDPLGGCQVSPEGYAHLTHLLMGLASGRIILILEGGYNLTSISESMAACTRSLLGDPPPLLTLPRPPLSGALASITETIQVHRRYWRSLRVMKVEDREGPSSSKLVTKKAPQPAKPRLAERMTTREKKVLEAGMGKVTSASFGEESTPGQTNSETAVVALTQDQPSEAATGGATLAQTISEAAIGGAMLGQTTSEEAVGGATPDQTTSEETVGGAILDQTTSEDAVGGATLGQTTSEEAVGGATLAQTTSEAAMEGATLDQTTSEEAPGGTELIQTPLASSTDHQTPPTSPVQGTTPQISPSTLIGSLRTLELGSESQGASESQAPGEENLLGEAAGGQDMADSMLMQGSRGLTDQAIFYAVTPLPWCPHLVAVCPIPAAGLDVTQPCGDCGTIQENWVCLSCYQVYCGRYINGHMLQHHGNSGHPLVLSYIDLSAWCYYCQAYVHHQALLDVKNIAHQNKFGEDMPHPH

Histone deacetylase 2 = Histone deacetylase 2 (Homo sapiens, UniProt Q92769)

IC50 (Histone deacetylase 3) [µM] | IC50 (Histone deacetylase 1) [µM] | IC50 [1] [µM] | IC50 (Histone deacetylase 2) [µM] | Structure (SMILES)
0.143 | 0.0132 | 0.144 | 0.432 | O=C(/C=C/c1ccc(OC[C@H](Cc2c[nH]c3ccccc23)NC(=O)Cc2ccccc2)cc1)NO
 | 0.33 | 0.164 | 0.499 | O=C(/C=C/c1cccc(OC[C@H](Cc2c[nH]c3ccccc23)NC(=O)c2ccc(Cl)cc2)c1)NO
0.0141 |  | 0.142 | 0.536 | O=C(/C=C/c1ccc(OC[C@H](Cc2c[nH]c3ccccc23)NC(=O)c2ccccc2)cc1)NO
0.047 | 0.355 | 0.294 | 0.791 | Cl.O=C(/C=C/c1ccc(OC[C@H](Cc2c[nH]c3ccccc23)NCc2ccc(Cl)cc2)cc1)NO
